Values of other authors as cited in patent publication US20120196057A1, “COMBINATION OF VITAMIN D AND 25-HYDROXYVITAMIN D 3” (priority 2008, published 2012).

Details: for several months; RDA 5-15 μg or 200-600 IU; cited from earlier work

Vitamin D
Chronic intake at which toxicity can occur: more than 100 times the recommended daily allowance
